The record followed here is ChEMBL document CHEMBL1155235, “Synthesis and pharmacological evaluation of sulfamide-based analogues of anandamide” (Eur J Med Chem, 2009).

Protein sequences, listed by entry. Tags and fused reporters are not part of them.
UniProt P20272, whole entry: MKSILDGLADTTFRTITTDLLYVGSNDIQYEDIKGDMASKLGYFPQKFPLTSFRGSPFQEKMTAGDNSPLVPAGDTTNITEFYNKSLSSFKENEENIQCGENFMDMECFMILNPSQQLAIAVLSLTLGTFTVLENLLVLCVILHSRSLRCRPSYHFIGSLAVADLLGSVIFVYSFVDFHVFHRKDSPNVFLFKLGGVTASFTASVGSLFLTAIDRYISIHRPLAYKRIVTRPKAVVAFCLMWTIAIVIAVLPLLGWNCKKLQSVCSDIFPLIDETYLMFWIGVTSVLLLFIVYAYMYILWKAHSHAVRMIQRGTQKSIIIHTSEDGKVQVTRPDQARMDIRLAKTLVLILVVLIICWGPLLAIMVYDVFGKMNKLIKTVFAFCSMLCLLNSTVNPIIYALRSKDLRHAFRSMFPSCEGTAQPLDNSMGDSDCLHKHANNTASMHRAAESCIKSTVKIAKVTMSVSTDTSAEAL

The test deals with Cannabinoid receptor 1 (Rattus norvegicus, UniProt P20272). Put plainly: Displacement of [3H]SR141716A from CB1 receptor in rat cerebellar membrane after 90 mins by scintillation counting. It is filed as cell membranes, Cerebellum. An outline of the steps: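 Cerebellar membranes incubated in triplicate with radioligand ([3H]SR141716A 0.4 nM; [3H]WIN-55212-2 1 nM) and compound at 10^-5 to 10^-12 M final. Compounds were dissolved in DMSO, then diluted in 20 mM HEPES pH 7.4 with 1 mM MgCl2 and 0.5% fatty-acid-free BSA. Incubation was 30 °C for 90 min, stopped with ice-cold buffer and filtered on GF/C. Ki was derived by Cheng–Prusoff using fixed, independently measured Kd.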
Background: In a radioligand displacement assay an active substance lowers the binding of a labelled ligand.

Each structure is given as a SMILES string.

On to `CCCCC/C=C\C/C=C\C/C=C\C/C=C\CCCC(=O)NCCO` [ANANDAMIDE], for which the affinity, expressed as Ki, was 132 nM. This lies in the sub-micromolar range.

By Ki is commonly meant the dissociation constant of the complex between target and ligand, obtained from inhibition or displacement.
